From PubChem BioAssay AID2148 (The Scripps Research Institute Molecular Screening Center, 2009) come the findings set out here.

This is a selection; strong and weak results do not stand in their true shares. Active and inactive are the calls of the source. Rule as the data show it: active = inhibition above about 22%; inactive = the rest.

For the assay, the target named is Melanin-concentrating hormone receptor 1 (Homo sapiens) (UniProt Q99705). In words: MCHR1 antagonists in cells, counter-screen for GPR7 antagonist project, cell-based, fluorescence, human (AID 2148).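 Also: 0% = vehicle with agonist and 100% = vehicle without agonist.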 To be noted: MCHR1-expressing cells, fluorescence antagonist assay; at 4.4 µM; hits give high values. In general terms: The purpose of a counterscreen is to sort out artefacts and off-target activity.
With `O=c1c2cc([N+](=O)[O-])ccc2[nH]c2c([N+](=O)[O-])cc([N+](=O)[O-])cc12`, the inhibition (commonly the relative decrease from the control value, in per cent) was active: 56.4%.

Consider `COc1ccccc1OP(=O)(Nc1ccc(C)cn1)Oc1ccccc1OC`, for which the inhibition was active: 31.4%.
